Experimental data from patent publication US9783499B2, “Quinoline derivatives and their applications” (Shenyang Pharmaceutical University, priority 2012, dated 2017).

Legend:
Format in all cases: cell-based
Details in all cases: 72 hours
[1] = tested on: MDA-MB-231 (human beast cancer cell); assay: In vitro anti-tumor cellular activity (MTT), MDA-MB-231
Procedure: (§1) The in vitro inhibitory activity of the quinoline derivatives of formula I in the invention was evaluated against the cancer cell lines H460 (human lung cancer cell), HT-29 (colon cancer cell), MKN-45 (human gastric carcinoma cell), SMMC-7721 (hepatoma cell), MDA-MB-231 (human beast cancer cell), U87MG (Human malignant glioblastoma cell). […] After pouring the cell dissociation buffer to the centrifugetube, nutrient solution was added to stop digestion. The centrifugetube were centrifuged for 10 min under 800 r/min, the liquid supernatant was removed, 5 mL culture solution was added, after mixing by pipetting the cell, took 10 μL cell suspension to the cell counting plat, and adjusted the cell concentration to 10^4/well. Among the 96 wells, A1 is empty, 100 μL of cell suspension were added to the other wells. The 96 well plates were incubated in the incubator for 24 h. […] The 96-well plates were placed in an incubator and cultivated for 72 hours. (3) The culture media containing the compounds in the 96-well plates was discarded, and the cells were washed with phosphate buffered solution (PBS) twice. Each well was added with 100 μL MTT (tetrazole) (0.5 mg/mL), and then placed in an incubator to incubate for 4 hours, after which MTT solution was discarded and 100 μL dimethyl sulfoxide was added thereto. The reaction product of survival cells with MTT, i.e. formazan, was dissolved completely by oscillation on a magnetic oscillator, then placed into a microplate reader to measure the results, and the IC50 values of compounds could be deduced by Bliss method.

[2] = tested on: HT-29 (colon cancer cell); assay: In vitro anti-tumor cellular activity (MTT), HT-29
[3] = tested on: U87MG (Human malignant glioblastoma cell); assay: In vitro anti-tumor cellular activity (MTT), U87MG
[4] = tested on: MKN-45 (human gastric carcinoma cell); assay: In vitro anti-tumor cellular activity (MTT), MKN-45
Procedure: as §1

[5] = tested on: H460 (human lung cancer cell); assay: In vitro anti-tumor cellular activity (MTT), H460
Procedure: as §1

[6] = tested on: SMMC-7721 (hepatoma cell); assay: In vitro anti-tumor cellular activity (MTT), SMMC-7721
Procedure: as §1

Row | Compound | MDA-MB-231 IC50 [1] | HT-29 IC50 [2] | U87MG IC50 [3] | MKN-45 IC50 [4] | H460 IC50 [5] | SMMC-7721 IC50 [6]
1 | COc1cc2c(Oc3ccc(NC(=O)NN=Cc4ccc(F)cc4Cl)cc3F)ccnc2cc1OCCCN1CCCC1 | 0.40 µg/mL | 0.15 µg/mL | 0.95 µg/mL | 0.62 µg/mL | 0.33 µg/mL | 1.0 µg/mL
2 | COc1cc2c(Oc3ccc(C=NNC(=O)Nc4ccc(Cl)cc4)cc3F)ccnc2cc1OCCCN1CCN(C)CC1 [Example 53, (E)-N^1-(4-chlorophenyl)-N^4-(3-fluoro-4-(6-methoxy-7-(3-(4-methyl-1-piperazinyl)propoxy)quinoline-4-yloxy)benzaldehyde)semicarbazone] | 0.25 µg/mL | 0.19 µg/mL | 0.54 µg/mL | 0.48 µg/mL | 0.32 µg/mL | 0.53 µg/mL
3 | COc1cc2c(Oc3ccc(C=NNC(=O)Nc4cc(Cl)cc(Cl)c4)cc3F)ccnc2cc1OCCCN1CCCCC1 [Example 48, (E)-N^1-(3,5-dichlorophenyl)-N^4-(3-fluoro-4-(6-methoxy-7-(3-(piperidin-1-yl)propoxy)quinoline-4-yloxy)benzaldehyde)semicarbazone] | 0.13 µg/mL | 0.16 µg/mL | 0.33 µg/mL | 0.082 µg/mL | 0.077 µg/mL | 0.20 µg/mL
4 | COc1cc2c(Oc3ccc(C=NNC(=O)Nc4ccc(Cl)c(C(F)(F)F)c4)cc3F)ccnc2cc1OCCCN1CCN(C)CC1 [Example 51, (E)-N^1-(4-chloro-3-(trifluoromethyl)phenyl)-N^4-(3-fluoro-4-(6-methoxy-7-(3-(4-methyl-1-piperazinyl)propoxy)quinoline-4-yloxy)benzaldehyde)semicarbazone] | 0.19 µg/mL | 0.31 µg/mL |  | 0.98 µg/mL | 0.23 µg/mL | 1.4 µg/mL
5 | (E)-N^1-(3,5-dimethoxyphenyl)-N^4-(3-fluoro-4-(6-methoxy-7-(3-(4-methylpiperidin-1-yl)propoxy)quinoline-4-yloxy)benzaldehyde)semicarbazone [Example 59] | 0.45 µg/mL | 1.4 µg/mL | 1.9 µg/mL | 0.80 µg/mL | 0.60 µg/mL | 3.5 µg/mL
6 | COc1cccc(C=NNC(=O)Nc2ccc(Oc3ccnc4cc(OCCCN5CCCC5)c(OC)cc34)c(F)c2)c1 | 0.85 µg/mL | 1.2 µg/mL | 0.91 µg/mL | 1.3 µg/mL | 0.99 µg/mL | 1.7 µg/mL
